IC50 data for one compound are collected here from ChEMBL document CHEMBL2176889, “Design, synthesis, and pharmacological evaluation of monocyclic pyrimidinones as novel inhibitors of PDE5” (J Med Chem, 2012).

Chains of the proteins cited; added tags and fusions are not shown. Lines headed by an entry give the natural chain unless they say otherwise; changes in a name come on top.
UniProt O76083: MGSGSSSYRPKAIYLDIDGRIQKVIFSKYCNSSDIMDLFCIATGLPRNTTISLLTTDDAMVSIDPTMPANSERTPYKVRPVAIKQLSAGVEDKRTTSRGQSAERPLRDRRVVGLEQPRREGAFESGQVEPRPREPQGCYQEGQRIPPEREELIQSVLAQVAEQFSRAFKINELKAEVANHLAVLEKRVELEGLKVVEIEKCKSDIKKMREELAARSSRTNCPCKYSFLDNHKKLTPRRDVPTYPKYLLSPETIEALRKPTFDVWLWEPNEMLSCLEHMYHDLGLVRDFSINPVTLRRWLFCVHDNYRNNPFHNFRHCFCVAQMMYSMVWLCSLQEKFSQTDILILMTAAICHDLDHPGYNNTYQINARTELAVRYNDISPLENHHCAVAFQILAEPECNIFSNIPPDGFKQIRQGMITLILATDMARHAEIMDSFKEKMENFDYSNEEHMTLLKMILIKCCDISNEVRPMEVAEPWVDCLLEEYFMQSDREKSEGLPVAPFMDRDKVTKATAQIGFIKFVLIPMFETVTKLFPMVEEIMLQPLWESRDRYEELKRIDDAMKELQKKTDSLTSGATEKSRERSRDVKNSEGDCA

For this experiment, the target named is High affinity cGMP-specific 3',5'-cyclic phosphodiesterase 9A (Homo sapiens, UniProt O76083).

Compound `CCCc1nn(C)c2c(=O)[nH]c(-c3cc(S(=O)(=O)N4CCN(C)CC4)ccc3OCC)nc12` had a half-maximal inhibitory concentration (IC50) above 10 µM.
